Target: Vascular endothelial growth factor receptor 2 (Homo sapiens, UniProt P35968)
Experiment: Inhibition of human VEGFR2 after 60 mins

By UniProt entry, the sequences of proteins in these tests, tags left out.
UniProt P35968, whole entry: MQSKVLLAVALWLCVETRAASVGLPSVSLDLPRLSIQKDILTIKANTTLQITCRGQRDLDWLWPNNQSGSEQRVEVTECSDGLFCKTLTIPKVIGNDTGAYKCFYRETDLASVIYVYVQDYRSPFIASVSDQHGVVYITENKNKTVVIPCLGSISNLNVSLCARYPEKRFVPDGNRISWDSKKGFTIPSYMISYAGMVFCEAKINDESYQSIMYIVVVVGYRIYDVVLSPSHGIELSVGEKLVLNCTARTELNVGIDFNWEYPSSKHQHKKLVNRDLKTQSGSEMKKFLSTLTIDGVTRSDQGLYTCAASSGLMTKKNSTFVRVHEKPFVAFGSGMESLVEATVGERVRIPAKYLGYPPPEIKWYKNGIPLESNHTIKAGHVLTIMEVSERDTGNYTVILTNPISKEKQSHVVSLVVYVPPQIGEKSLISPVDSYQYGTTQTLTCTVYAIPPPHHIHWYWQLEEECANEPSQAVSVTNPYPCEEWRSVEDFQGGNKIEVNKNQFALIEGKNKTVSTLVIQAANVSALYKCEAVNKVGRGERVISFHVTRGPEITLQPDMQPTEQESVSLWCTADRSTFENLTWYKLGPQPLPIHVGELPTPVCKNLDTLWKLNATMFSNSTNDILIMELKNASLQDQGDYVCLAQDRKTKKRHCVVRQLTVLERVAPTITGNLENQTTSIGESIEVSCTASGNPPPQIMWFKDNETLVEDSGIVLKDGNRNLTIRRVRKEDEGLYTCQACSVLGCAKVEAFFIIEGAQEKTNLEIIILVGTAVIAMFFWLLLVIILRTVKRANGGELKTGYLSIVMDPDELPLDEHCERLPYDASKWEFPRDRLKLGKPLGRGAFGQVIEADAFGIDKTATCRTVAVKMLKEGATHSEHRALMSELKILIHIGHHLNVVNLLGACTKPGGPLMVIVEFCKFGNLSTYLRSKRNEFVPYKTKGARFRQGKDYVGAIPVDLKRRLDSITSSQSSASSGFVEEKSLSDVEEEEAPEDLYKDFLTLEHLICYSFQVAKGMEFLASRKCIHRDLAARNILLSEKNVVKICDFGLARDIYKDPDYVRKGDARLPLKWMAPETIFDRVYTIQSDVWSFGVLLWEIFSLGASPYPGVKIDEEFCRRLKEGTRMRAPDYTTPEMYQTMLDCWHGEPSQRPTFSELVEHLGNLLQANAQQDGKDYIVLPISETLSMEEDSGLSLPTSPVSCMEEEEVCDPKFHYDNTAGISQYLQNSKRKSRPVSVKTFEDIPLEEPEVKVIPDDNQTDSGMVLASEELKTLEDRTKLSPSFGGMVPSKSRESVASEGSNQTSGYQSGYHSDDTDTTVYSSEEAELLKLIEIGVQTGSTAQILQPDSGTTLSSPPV

IC50: 0.49 nM
Structure (SMILES): COc1cc2nccc(Oc3ccc4c(C(=O)Nc5ccc(Cl)cc5)cccc4c3)c2cc1OC
